In this experiment the test system is ALS MNs. As to the kind of experiment: Motor neuron survival assay (ISL1+ MNs) in ALS iPSC-derived MNs. The note with it: treatment from day 28, NAM 0.5 mM, C12 5 μM, Riluzole 5 μM, Edaravone 100 μM, siRNA 10 pmol. In kind it is cell-based, human. An excerpt: Cultures were then fixed with 4% PFA on Day 25, 28, 31 and 35 respectively for quantification of motor neuron survival. Fixed cultures were stained with the motor neuron marker ISL1, and cellular nuclei were counterstained with DAPI before imaging on the high content microscope Phenix (Perkin Elmer). Percentage of ISL1+ cells was normalized to total nuclei number. To calculate normalized survival index, the percentage of ISL1+/DAPI at day 25 was arbitrary set as 1.0, and motor neuron survival on later days were in turn normalized to day 25 cultures.
Motor neuron cultures at day 27 were dissociated with Accutase and seeded at 2 million cells per well in a 6-well plate. At day 28, non-targeting siRNA or siRNAs were individually complexed with Lipofectamine RNAiMAX following manufacturer's instructions and added to the motor neuron cultures. For each well, 10 pmol of siRNAs and 8 μl of Lipofectamine RNAiMAX were used. Cells were either harvested for RNA and protein analyses, fixed for immunostaining or metabolic flux analysis were performed 3 days after siRNA transfection.

We go through one compound from US12662672B2, “Method of promoting survival and/or function of a motor neuron and related agents, uses and methods” (Agency for Science, Technology and Research, priority 2019, dated 2026).

Take `Nc1nc2ccc(OC(F)(F)F)cc2s1` [Riluzole]: the “MN survival (ISL1+ MNs)” value was “promoted ALS MN survival”.
